# Measured affinities in a library of Ab-14 light chain variants

Antigen: PDVDLGDISGINAS, a 14-residue peptide of the SARS-CoV-2 spike HR2 region.

Each scFv is VH, three GGGGS repeats, VL, as in the parent Ab-14, and differs from it in the CDRs of the light chain only.
VH: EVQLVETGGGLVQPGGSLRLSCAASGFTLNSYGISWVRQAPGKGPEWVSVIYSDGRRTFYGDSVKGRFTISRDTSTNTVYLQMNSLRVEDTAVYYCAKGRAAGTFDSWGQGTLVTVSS
VL: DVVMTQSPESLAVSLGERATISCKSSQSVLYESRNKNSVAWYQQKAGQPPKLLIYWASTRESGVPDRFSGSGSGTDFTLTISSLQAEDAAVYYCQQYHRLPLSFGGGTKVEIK

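The starting antibody came from a phage panning campaign against this peptide. Variants in AAYL50 differ from the parent at up to three CDR positions; double and triple changes were sampled at random. In AlphaSeq, yeast of one mating type display the scFv and yeast of the other type display the target. Mating (16 h, 30 °C) was followed by selection of diploids and sequencing of their barcodes. Scores were corrected for input abundance and mapped to Kd with protein pairs of known affinity run in the same pool. Mating was done three times.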

Changes read parent residue, position, new residue, counted from the first residue of the VL shown.
Every variant below is changed at Y31 of the VL (sequential numbering).
Values are log10 of the apparent Kd in nM; lower means stronger binding.
Averages over replicates are reported, and they cover detected replicates only.
"nd" marks a missing value. The strain was present, yet no cells mated with the target were sequenced in any replicate, which points to weak or no binding.

Variant Y31Q+A40T showed 2.54 (1 of 3 replicates).
Variant Y31T+W56T+S103E showed 1.68 (3 of 3 replicates).
Variant Y31K+E32Y+R34N showed 0.93 (3 of 3 replicates).
Variant Y31I+S33A+R34N showed 0.95 (3 of 3 replicates).
Variant S25L+Y31K+R99V showed -0.23 (3 of 3 replicates).
Variant Y31W+S33H+S103W showed 3.94 (2 of 3 replicates).
Variant K24S+Y31G+V39Y showed 3.85 (1 of 3 replicates).
Variant V29F+Y31N+N35D showed 0.65 (3 of 3 replicates).
Variant Y31K+V39M+S103K showed 2.76 (3 of 3 replicates).
Variant Q27W+Y31I+Q95E showed 3.53 (1 of 3 replicates).
Variant S28R+Y31Q+N37C showed 1.82 (3 of 3 replicates).
Variant Y31T showed 3.67 (3 of 3 replicates).
Variant Y31G+N37F+L100V showed 4.55 (2 of 3 replicates).
Variant Y31C+Q95C showed nd (0 of 3 replicates).
Variant Y31C+S33K+T59I showed nd (0 of 3 replicates).
Variant S26M+Y31Q+N37Y showed 0.88 (3 of 3 replicates).
Variant Y31H+R34C+T59P showed nd (0 of 3 replicates).
Variant Y31N+S33T+A40M showed nd (0 of 3 replicates).
Variant Y31D+A40T+L100G showed nd (0 of 3 replicates).
Variant Y31K+E61A+S103P showed 1.63 (3 of 3 replicates).
Variant S26G+Y31L+P101N showed nd (0 of 3 replicates).
Variant Y31T+T59E showed 0.20 (3 of 3 replicates).
Variant Y31P+E32C+S58N showed 3.77 (1 of 3 replicates).
Variant S28Q+Y31V+V39R showed nd (0 of 3 replicates).
Variant K24E+Y31T+S58I showed 2.45 (3 of 3 replicates).
Variant Y31Q+N35S+R99L showed 1.25 (3 of 3 replicates).
Variant Y31H+L102T showed 4.55 (2 of 3 replicates).
Variant L30G+Y31H+W56C showed nd (0 of 3 replicates).
Variant Y31H+S38Y+L100S showed 4.84 (3 of 3 replicates).
Variant Y31W+N37T showed 2.76 (3 of 3 replicates).
Variant Y31W+A57H+P101E showed 4.12 (1 of 3 replicates).
Variant Y31M+N35H+A40K showed nd (0 of 3 replicates).
Variant K24P+Y31T+S58C showed 4.35 (2 of 3 replicates).
Variant S26P+Y31D+A40M showed nd (0 of 3 replicates).
Variant Y31S+A40R+S103R showed nd (0 of 3 replicates).
Variant Y31A+K36M+S58R showed 0.68 (3 of 3 replicates).
Variant L30N+Y31K+W56I showed 6.27 (1 of 3 replicates).
Variant S28T+Y31K+P101G showed nd (0 of 3 replicates).
Variant S26G+V29K+Y31G showed 0.86 (3 of 3 replicates).

The 5 strongest on average among those seen in every replicate, once more:

Variant S25L+Y31K+R99V showed -0.23 (3 of 3 replicates).
Variant Y31T+T59E showed 0.20 (3 of 3 replicates).
Variant V29F+Y31N+N35D showed 0.65 (3 of 3 replicates).
Variant Y31A+K36M+S58R showed 0.68 (3 of 3 replicates).
Variant S26G+V29K+Y31G showed 0.86 (3 of 3 replicates).

As a blank, each scFv also met three strains without target: over library AAYL50, 18% of these pairings were detected, typically at 4.19 and seldom below 2.99.

Source: Engelhart et al. 2022 (doi:10.1038/s41597-022-01779-4), MIT Lincoln Laboratory and A-Alpha Bio; data file from the FLAb repository.